Data reported in ChEMBL document CHEMBL4028852, “Design of a Chemical Probe for the Bromodomain and Plant Homeodomain Finger-Containing (BRPF) Family of Proteins” (J Med Chem, 2017).

Chains of the proteins cited; added tags and fusions are not shown.
UniProt Q9H8M2, whole entry: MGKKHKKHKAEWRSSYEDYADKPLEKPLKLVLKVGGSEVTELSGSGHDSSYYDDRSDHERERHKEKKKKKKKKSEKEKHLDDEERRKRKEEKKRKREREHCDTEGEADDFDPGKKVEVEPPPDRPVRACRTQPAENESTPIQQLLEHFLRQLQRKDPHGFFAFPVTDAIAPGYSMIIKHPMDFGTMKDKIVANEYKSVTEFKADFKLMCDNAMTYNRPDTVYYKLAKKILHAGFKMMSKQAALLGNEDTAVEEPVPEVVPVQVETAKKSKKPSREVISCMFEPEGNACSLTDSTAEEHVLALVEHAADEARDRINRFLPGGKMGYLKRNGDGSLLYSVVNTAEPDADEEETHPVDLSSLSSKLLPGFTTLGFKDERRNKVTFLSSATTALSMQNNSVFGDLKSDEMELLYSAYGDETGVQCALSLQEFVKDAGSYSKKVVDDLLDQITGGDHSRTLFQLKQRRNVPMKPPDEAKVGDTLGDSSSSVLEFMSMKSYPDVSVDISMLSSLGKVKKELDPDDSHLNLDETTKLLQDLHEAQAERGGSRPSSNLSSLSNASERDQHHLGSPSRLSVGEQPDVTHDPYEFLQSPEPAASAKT

Experiments:
Peregrin (Homo sapiens) = target: T1, Peregrin (Homo sapiens) (UniProt P55201)
T1 sequence (whole entry): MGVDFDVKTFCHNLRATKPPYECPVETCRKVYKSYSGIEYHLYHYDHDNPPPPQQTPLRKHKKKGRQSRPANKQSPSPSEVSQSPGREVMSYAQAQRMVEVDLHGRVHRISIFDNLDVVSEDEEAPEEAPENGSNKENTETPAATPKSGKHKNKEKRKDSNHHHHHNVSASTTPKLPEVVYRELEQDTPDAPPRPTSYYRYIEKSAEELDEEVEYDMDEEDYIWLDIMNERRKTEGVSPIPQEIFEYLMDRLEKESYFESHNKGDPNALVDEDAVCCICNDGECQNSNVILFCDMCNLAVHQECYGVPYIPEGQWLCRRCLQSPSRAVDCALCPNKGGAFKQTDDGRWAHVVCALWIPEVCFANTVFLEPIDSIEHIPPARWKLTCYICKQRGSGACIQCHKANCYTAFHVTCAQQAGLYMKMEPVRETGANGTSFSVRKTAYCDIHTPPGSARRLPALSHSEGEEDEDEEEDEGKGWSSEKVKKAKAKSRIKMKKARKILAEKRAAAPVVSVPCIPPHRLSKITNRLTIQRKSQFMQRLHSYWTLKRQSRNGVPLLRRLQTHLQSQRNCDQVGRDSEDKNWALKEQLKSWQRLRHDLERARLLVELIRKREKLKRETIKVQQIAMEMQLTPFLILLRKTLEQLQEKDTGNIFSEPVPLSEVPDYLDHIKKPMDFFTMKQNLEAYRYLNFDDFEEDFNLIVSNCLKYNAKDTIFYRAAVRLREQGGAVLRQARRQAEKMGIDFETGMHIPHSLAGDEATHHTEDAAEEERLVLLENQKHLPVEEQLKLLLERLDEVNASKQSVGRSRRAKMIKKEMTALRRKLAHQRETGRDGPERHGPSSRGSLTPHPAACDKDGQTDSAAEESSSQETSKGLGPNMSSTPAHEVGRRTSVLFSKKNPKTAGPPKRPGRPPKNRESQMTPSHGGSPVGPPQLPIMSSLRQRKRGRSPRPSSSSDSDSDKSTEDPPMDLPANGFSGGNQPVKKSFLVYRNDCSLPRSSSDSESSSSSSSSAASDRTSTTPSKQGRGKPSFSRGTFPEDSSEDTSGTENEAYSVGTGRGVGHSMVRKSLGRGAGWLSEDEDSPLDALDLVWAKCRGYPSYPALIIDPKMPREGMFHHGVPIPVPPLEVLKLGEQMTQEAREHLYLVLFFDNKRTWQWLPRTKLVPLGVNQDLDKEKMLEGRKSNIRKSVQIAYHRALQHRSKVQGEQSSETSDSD

[1] = target: Bromodomain-containing protein 9 (Homo sapiens, UniProt Q9H8M2); settings: 10 uM
[2] = target: T2, Bromodomain and PHD finger-containing protein 3 (Homo sapiens, UniProt Q9ULD4); assay: Inhibition of His-tagged BRPF3 (unknown origin) using [H-YSGRGKacGGKacGLGKacGGAKacRHRK(Biotin)-OH peptide as substrate by alphaScreen assay
T2 sequence (Q9ULD4 whole entry): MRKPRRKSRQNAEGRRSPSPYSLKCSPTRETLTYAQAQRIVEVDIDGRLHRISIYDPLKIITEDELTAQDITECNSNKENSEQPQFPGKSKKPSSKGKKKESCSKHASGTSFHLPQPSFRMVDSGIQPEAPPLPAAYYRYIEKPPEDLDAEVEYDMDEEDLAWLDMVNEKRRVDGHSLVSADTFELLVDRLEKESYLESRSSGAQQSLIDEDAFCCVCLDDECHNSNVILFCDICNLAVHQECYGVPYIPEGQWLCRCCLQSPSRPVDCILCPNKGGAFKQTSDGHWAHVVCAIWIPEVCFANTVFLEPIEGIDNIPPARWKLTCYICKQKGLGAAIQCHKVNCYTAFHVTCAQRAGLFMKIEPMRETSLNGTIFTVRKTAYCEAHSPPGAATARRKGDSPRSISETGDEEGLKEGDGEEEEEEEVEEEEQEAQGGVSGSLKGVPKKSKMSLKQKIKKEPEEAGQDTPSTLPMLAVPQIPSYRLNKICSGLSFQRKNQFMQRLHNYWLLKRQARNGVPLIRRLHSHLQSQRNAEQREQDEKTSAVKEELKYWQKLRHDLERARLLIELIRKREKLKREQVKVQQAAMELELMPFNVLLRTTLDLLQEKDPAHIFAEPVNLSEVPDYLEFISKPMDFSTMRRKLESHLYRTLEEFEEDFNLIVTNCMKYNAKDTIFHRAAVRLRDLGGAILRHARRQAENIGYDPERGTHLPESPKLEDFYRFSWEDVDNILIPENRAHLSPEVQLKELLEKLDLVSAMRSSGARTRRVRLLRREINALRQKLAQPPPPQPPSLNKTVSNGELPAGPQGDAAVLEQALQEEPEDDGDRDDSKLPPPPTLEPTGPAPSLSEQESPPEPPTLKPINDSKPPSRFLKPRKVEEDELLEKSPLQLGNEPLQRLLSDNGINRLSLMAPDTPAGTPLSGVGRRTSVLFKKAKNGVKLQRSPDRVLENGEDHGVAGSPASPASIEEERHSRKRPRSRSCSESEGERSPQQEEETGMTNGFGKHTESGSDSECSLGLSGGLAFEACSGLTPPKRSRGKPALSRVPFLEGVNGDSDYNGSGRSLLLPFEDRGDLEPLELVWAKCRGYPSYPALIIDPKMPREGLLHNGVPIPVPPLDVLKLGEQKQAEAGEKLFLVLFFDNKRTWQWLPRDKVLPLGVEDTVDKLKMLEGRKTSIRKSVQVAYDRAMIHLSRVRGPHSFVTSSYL

[3] = target: T2, Bromodomain and PHD finger-containing protein 3; assay: Inhibition of human BRPF3 (588 to 701 residues) expressed in Escherichia coli BL21 after 1 hr by BROMOscan assay
[4] = target: T3, Bromodomain-containing protein 7 (Homo sapiens, UniProt Q9NPI1); assay: Inhibition of human BRD7 (125 to 254 residues) expressed in Escherichia coli BL21 after 1 hr by BROMOscan assay
T3 sequence (Q9NPI1 whole entry): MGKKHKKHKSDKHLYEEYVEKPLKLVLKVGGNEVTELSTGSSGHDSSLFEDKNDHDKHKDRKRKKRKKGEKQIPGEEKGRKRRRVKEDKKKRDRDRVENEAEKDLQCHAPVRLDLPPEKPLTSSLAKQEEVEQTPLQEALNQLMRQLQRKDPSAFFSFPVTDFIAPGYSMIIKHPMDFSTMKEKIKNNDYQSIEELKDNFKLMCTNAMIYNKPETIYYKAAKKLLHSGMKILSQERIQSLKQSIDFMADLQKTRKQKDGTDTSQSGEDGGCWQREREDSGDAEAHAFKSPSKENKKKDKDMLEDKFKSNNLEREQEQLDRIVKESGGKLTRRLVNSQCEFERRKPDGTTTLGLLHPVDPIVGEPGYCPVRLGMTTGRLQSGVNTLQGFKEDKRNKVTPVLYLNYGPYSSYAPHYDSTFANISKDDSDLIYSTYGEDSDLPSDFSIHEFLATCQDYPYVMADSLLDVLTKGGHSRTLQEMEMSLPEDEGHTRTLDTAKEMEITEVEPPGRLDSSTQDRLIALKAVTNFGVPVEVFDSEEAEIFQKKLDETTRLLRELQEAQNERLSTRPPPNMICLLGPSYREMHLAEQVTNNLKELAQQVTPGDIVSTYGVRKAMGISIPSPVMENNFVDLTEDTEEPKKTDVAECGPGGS

SMILES	ΔTm (Peregrin (Homo sapiens))	other results
Cc1cc2cc(NS(=O)(=O)c3ccc(C#N)cc3)cc(F)c2n(C)c1=O	7.1 °C	–
COc1cc2c(cc1NS(=O)(=O)c1ccc(C#N)cc1C)cc(C)c(=O)n2C	9.9 °C	–
COc1cc(C#N)ccc1S(=O)(=O)Nc1ccc2c(c1)cc(C)c(=O)n2C	–	IC50 [2]: 1010 nM; IC50 [3]: 140 nM; IC50 [4]: 140 nM
CCOc1cc(C#N)ccc1S(=O)(=O)Nc1cc2cc(C)c(=O)n(C)c2cc1OC	9.5 °C	–
COc1cc2c(cc1NS(=O)(=O)c1ccccc1OC)cc(C)c(=O)n2C	11 °C	–

Now from value to compound, other results behind:

ΔTm (Peregrin (Homo sapiens))	SMILES	other results
2.6 °C	Cn1c(=O)ccc2cc(S(=O)(=O)Nc3ccccc3C#N)ccc21	ΔTm [1]: 3.9 °C
2.7 °C	Cn1c(=O)ccc2c(F)c(NS(=O)(=O)c3ccc(C#N)cc3)ccc21	–
3.8 °C	Cn1c(=O)ccc2cc(NS(=O)(=O)c3ccc(C#N)cc3)c(F)cc21	–
2.3 °C	Cn1c(=O)ccc2cc(S(=O)(=O)Nc3cccc(C#N)c3)ccc21	–
